According to article PMC4459640 (European journal of pharmaceutical sciences : official …, 2014):

System: buprenorphine
Experiment: not read
Conditions: other: Michaelis-Menten, pH 7.5

Work on human SULT2A1 (Homo sapiens) yielded a Km of 169.9 ± 12.62 µM and a Vmax of 0.00723 µmol/min/mg.
